Assay results: PMC5735092 (Scientific Reports, 2017)

System: Vero cells
Assay: Cytotoxicity, CellGlo Cell Viability assay
Details: read-out: CC50 ± SD, 24 h

Q: Which CC50 does the source give for `CC(OC(C)(C)C)C(NC(=O)C(CSC(C)(C)C)NC(=O)C(CCC(=O)OC(C)(C)C)NC(=O)OCC1c2ccccc2-c2ccccc21)C(=O)O` (stereo not shown) here?
A: The CC50 was over 100 µM.
